Data from ChEMBL document CHEMBL1125788, “Synthesis and ocular antihypertensive activity of new imidazolidine derivatives containing a beta-blocking side chain” (J Med Chem, 1991).

Target: T1, Alpha-1A adrenergic receptor (Rattus norvegicus, UniProt P43140)
T1 sequence (P43140 whole entry): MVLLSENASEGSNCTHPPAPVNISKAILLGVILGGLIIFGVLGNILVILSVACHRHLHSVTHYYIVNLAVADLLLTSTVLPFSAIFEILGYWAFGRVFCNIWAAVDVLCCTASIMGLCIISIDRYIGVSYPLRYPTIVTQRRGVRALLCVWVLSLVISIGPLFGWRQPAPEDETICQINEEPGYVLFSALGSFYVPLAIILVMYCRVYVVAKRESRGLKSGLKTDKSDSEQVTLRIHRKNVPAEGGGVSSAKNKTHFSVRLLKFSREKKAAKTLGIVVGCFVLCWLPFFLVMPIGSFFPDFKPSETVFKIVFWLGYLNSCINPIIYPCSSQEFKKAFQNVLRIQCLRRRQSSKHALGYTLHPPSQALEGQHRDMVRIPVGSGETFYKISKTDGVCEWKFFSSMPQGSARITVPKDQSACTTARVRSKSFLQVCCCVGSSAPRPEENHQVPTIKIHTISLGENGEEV
Assay: The compound was tested for alpha-adrenergic activity against Alpha-1 adrenergic receptor from rat aorta.
Conditions: read-out: pA2 (converted)
In short: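 Isolated rat aorta strips at 2 g resting tension, stabilized about 1 h. Beta-receptors blocked with propranolol 10^-6 mol/L for 30 min. Cumulative norepinephrine curve (10^-10 to 10^-7 mol/L) with ascorbic acid 1.13 × 10^-6 mol/L present. ED50 by Ariens–Van Rossum. Intrinsic activity = maximum response relative to norepinephrine. Antagonism as pA2 (Schild) or, if non-competitive, pD'2.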

- Kb: 257 nM
SMILES: Clc1cccc(Cl)c1N=C1NCCN1 [CLONIDINE]
